From article PMC3392958, “Assay Format as a Critical Success Factor for Identification of Novel Inhibitor Chemotypes of Tissue-Nonspecific Alkaline Phosphatase from High-Throughput Screening” (Molecules, 2010)

Molecular target: T1, IAP (Homo sapiens, UniProt P09923)
T1 construct: made in house; host or cells: COS-1 cells, transient expression; dialyzed serum-free conditioned medium
T1 sequence (P09923 20-503 limits assumed): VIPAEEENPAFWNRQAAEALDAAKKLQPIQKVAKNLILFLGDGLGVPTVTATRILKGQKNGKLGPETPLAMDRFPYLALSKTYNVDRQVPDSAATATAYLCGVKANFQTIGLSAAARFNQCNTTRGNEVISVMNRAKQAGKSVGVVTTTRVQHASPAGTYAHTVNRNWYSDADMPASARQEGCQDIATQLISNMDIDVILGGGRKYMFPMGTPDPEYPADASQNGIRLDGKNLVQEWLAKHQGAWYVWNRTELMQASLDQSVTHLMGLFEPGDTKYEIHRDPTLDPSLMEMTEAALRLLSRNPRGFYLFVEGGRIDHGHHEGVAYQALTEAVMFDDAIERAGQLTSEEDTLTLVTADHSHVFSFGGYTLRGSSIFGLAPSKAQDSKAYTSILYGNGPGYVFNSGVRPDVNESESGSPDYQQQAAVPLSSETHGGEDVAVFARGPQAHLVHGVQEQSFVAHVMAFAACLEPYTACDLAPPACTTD
Experiment: IAP luminescent assay (CDP-star)
Format: biochemical

IC50 (phtalimide triazole series, read-out: IC50 IAP-Lumi): 8.87 µM
IC50 (read-out: IAP IC50): 8.9 µM
SMILES: O=C1c2ccccc2C(=O)N1c1nnc(Cc2ccccc2)[nH]1 [MLS-0091978]

Read-outs that look alike come from different tables or passages of the source.
